{"sequences": {"note": "Chains of the proteins cited; added tags and fusions are not shown. Residues count along the entry.", "UniProt P47871, 26-477, species assumed": "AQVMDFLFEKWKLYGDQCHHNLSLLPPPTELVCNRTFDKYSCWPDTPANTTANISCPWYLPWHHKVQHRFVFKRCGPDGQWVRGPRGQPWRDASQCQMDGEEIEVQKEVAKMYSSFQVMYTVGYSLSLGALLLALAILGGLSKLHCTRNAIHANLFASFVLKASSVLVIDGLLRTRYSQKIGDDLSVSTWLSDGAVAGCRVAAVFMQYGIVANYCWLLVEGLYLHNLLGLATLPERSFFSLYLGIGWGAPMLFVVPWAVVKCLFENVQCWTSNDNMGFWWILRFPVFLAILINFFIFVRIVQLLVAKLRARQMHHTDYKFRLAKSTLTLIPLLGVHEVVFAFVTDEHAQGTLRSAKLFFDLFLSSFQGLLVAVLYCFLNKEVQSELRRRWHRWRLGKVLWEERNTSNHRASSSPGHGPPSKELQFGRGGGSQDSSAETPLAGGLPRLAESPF"}, "source": "patent US20260234211A1", "about": "“POLYPEPTIDE HAVING MODIFIED STRUCTURE AND USE THEREOF” (Guangdong Raynovent Biotech Co., Ltd., priority 2023, published 2026)", "target": "T1, GCGR (Homo sapiens, UniProt P47871)", "T1 construct": "host or cells: HEK293", "test": "In vitro GCGR agonistic activity test (cAMP, HEK293 cell line)", "type": "cell-based", "procedure": "The cell lines were constructed by Pharmaron Inc. See details in the table below.\nThe test compounds were diluted at a 5-fold dilution factor in 10 points, starting from an initial concentration of 200 nM.\n1) The cell lines were cultured respectively in complete medium at 37° C. and 5% CO2.\n2) After digestion with TrypLE, the cells were re-suspended in experimental buffer respectively, and inoculated in a CulturPlate-384 cell culture plate at a density of 2000 cells/well and at a volume of 15 μL/well.\n1) Eu-cAMP tracer was freeze-thawed and diluted 50 fold with detection buffer; and Ulight-anti-cAMP was freeze-thawed and diluted 150 fold with detection buffer.\n2) 5 μL of the test compounds were added respectively into experimental wells of the CulturPlate-384 cell culture plate, which was centrifuged at 200 g for 30 s, and left for stand at 37° C. for 30 min.\n3) 10 μL of Eu-cAMP tracer was added and then 10 μL of Uligh-anti-cAMP was added into experimental wells respectively.\n4) The reaction plate was centrifuged at 200 g at room temperature for 30 s and left for stand at 25° C. for 1 h.\n5) Envision 2105 was used to collect data, with excitation light at 340 nm and emission light at 665 nm and 615 nm."}
{"smiles": "CC[C@H](C)[C@H](NC(=O)[C@H](Cc1ccccc1)NC(=O)[C@H](C)NC(=O)C(C)(C)NC(=O)[C@H](CCC(N)=O)NC(=O)[C@H](C)NC(=O)[C@@H]1CCCCNC(=O)CN(C(=O)COCCOCCNC(=O)CC[C@H](NC(=O)CCCCCCCCCCCCCCCCCCP(=O)(O)O)C(=O)O)CC(=O)NCCCC[C@H](NC(=O)[C@](C)(CC(C)C)NC(=O)[C@@H](NC(=O)[C@H](CO)NC(=O)[C@H](Cc2ccc(O)cc2)NC(=O)[C@H](CC(=O)O)NC(=O)[C@H](CO)NC(=O)[C@@H](NC(=O)[C@H](Cc2ccccc2)NC(=O)[C@@H](NC(=O)CNC(=O)[C@H](CCC(N)=O)NC(=O)C(C)(C)NC(=O)[C@@H](N)Cc2ccc(O)cc2)[C@@H](C)O)[C@@H](C)O)[C@@H](C)CC)C(=O)N[C@@H](CC(=O)O)C(=O)N[C@@H](CCCCN)C(=O)N1)C(=O)N[C@@H](CCC(=O)O)C(=O)N[C@@H](Cc1ccc(O)cc1)C(=O)N[C@@H](CC(C)C)C(=O)N[C@@H](CC(C)C)C(=O)N[C@@H](CCC(=O)O)C(=O)NCC(=O)NCC(=O)N1CCC[C@H]1C(=O)N[C@@H](CO)C(=O)N[C@@H](CO)C(=O)NCC(=O)N[C@@H](C)C(=O)N1CCC[C@H]1C(=O)N1CCC[C@H]1C(=O)N1CCC[C@H]1C(=O)N[C@@H](CO)C(N)=O", "note": "[Example 43, YAibQGT FTSDY SIα- MeL^1KD K^1KAQAib AFIEY LLEGG PSSGA PPPS-NH2 (SEQ ID NO: 24)]", "values": [{"measurement": "EC50", "result": 0.042, "unit": "nM"}]}
